The numbers were not newly measured in PMC8253905, which cites them from elsewhere.

Amino acid sequences for entries named in this document (tags omitted). A change or cut given only in a name is not applied to a line headed by its entry. Residues count along the entry.
UniProt P0A9D4: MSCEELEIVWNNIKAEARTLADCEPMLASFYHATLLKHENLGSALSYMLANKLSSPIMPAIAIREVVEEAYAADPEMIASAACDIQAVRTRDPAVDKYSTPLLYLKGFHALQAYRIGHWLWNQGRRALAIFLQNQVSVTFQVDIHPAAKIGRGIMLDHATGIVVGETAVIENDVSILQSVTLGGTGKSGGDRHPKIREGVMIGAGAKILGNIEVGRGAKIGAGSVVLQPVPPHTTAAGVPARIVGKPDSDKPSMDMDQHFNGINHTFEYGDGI
UniProt P0ABK5, 2-323: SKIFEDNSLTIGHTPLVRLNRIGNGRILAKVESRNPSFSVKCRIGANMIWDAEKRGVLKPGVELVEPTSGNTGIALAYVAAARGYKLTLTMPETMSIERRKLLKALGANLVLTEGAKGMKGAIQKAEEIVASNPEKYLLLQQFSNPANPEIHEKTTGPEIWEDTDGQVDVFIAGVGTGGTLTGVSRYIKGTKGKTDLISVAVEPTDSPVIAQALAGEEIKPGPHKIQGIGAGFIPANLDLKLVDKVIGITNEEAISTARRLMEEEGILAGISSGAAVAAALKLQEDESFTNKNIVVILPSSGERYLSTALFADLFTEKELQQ

For the data set, the target named is CysE (Escherichia coli) (UniProt P0A9D4).

Consider CysK (from UniProt P0ABK5), for which the Kd was 6 nM.
